Test system: SK-BR-3 HER2+ breast cancer cells
Assay: Cell viability assay (CellTiter-Glo), SK-BR-3
Assay type: cell-based
Settings: SK-BR-3, 72 h, same concentrations
Protocol: SK-BR-3 cells were treated with […]-100 nM trastuzumab-MMAE 61″ in the presence or absence of 50 μM B2pin2, cultured for 72 h, and assayed using the CellTiter-Glo® cell viability assay. The IC50 of the ADC was insensitive to the presence or absence of diboron and recapitulated the IC50 of MMAE alone.
As further control, trastuzumab was replaced with a human IgG isotype control, employing ADC 62″. […] This N-oxide-based drug delivery platform provides a convenient mechanism for loading drugs onto antibodies as well as an appealing alternative to existing methods for the fast and complete release of drug molecules from their carriers.
Cell culture: Cells were cultured in RPMI (SK-BR-3) or DMEM (MDA-MB-231) containing 10% FBS (Sigma), 100 units/mL penicillin, and 0.1 mg/mL streptomycin (Sigma) in a humidified chamber at 37° C. under an ambient atmosphere with 5% CO2. […]
Cell viability assay: SK-BR-3 or MDA-MB-231 cell were seeded at a density of 5,000-10,000 cells per well in media [100 μL, RPMI (SK-BR-3) or DMEM (MDA-MB-231) supplemented with 5% heat-inactivated human serum (Sigma), penicillin (100 units/mL), streptomycin (0.1 mg/mL)] in an opaque 96-well plate. […] The plates were incubated at room temperature for 10 min to stabilize the luminescence signal and analyzed by a microplate reader (Clariostar Plus, BMG Labtech) (FIG. 48 and FIG. 49).

## trastuzumab: Trastuzumab: Biosynth FT65040, unmodified antibody control
  activity on cell viability: little activity

Source: patent US20240165259A1, “BIOORTHOGONAL REACTION SUITABLE FOR CLICK/UNCLICK APPLICATIONS” (DANA-FARBER CANCER INSTITUTE, INC., priority 2021, published 2024)
